{"source": "paper PMC7165421", "about": "(Proceedings of the National Academy of Sciences of the …, 2020)", "test_system": "ARΔNTD binding to ARE/ETS DNA", "assay": "AR binding to ARE/ETS DNA in presence of unlabeled peptides", "set-up": "species or system mouse", "conditions": "unlabeled peptide in 4-molar excess to AR, no full-length ERG", "data": [{"sequence": "QIQLWHFILELLRKEEY [ERF AIM]", "values": [{"measurement": "effect on AR binding to DNA", "value": "repressed the ability of AR to bind DNA"}]}]}
